Columns and labels:
Nociceptin receptor = Nociceptin receptor (Homo sapiens, UniProt P41146); test: ChEBML_144661
Mu-type opioid receptor = Mu-type opioid receptor (Homo sapiens, UniProt P35372); test: ChEBML_148227

The chains behind the UniProt entries cited, without tags or fusion partners. Where a name states a change or a piece, a line headed by the entry shows the natural chain unless it says otherwise.
UniProt P41146: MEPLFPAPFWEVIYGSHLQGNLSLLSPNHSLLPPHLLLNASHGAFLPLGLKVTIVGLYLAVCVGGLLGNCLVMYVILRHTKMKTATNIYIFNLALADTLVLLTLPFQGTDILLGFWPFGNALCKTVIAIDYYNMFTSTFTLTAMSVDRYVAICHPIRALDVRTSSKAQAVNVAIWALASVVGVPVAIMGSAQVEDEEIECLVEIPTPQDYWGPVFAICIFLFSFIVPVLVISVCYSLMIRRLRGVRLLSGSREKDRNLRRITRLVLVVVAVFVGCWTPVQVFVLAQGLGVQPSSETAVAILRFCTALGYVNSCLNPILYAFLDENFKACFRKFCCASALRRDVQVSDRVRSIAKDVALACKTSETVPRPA
UniProt P35372, whole entry, looked up: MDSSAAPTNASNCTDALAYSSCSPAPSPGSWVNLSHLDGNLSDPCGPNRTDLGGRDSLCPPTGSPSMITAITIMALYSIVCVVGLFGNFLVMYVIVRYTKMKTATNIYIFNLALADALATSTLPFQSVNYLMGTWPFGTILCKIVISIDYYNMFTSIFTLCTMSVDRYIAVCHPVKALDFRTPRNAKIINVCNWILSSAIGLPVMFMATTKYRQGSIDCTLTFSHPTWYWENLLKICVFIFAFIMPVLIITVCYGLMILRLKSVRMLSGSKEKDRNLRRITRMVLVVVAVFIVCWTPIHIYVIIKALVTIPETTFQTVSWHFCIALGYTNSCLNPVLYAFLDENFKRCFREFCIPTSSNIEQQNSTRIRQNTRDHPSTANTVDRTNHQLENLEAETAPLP

| Structure (SMILES) | Ki (Nociceptin receptor) [nM] | Ki (Mu-type opioid receptor) [nM] |
| --- | --- | --- |
| CCN1C(=O)N(C2CCN(C3CCCCCCC3)CC2)[C@@H]2CCCC[C@H]21 | 111 | 909 |
| O=C1N[C@@H]2CCCC[C@H]2N1C1CCN(Cc2ccc3ccccc3c2)CC1 | 1260 | 1240 |
| CCN1C(=O)N(C2CCN(C3CCC4CCCCC4C3)CC2)[C@@H]2CCCC[C@H]21 (stereo partly specified) | 184 | 279 |
